From paper PMC5155016 (Nature chemical biology, 2015) come the findings set out here.

Protein sequences, listed by entry. Tags and fused reporters are not part of them.
UniProt O75874, whole entry R132C: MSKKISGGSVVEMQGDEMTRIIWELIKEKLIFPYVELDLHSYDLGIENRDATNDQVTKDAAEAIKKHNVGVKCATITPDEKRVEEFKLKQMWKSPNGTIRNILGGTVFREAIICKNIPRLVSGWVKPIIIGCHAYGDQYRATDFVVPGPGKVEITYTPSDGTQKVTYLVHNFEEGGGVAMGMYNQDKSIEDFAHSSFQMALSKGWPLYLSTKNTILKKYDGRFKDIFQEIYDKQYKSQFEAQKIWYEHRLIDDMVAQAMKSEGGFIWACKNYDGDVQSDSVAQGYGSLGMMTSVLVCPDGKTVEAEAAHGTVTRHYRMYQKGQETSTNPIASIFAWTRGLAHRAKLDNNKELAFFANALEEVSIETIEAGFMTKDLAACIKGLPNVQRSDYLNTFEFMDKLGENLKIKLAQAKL
UniProt O75874, whole entry partner: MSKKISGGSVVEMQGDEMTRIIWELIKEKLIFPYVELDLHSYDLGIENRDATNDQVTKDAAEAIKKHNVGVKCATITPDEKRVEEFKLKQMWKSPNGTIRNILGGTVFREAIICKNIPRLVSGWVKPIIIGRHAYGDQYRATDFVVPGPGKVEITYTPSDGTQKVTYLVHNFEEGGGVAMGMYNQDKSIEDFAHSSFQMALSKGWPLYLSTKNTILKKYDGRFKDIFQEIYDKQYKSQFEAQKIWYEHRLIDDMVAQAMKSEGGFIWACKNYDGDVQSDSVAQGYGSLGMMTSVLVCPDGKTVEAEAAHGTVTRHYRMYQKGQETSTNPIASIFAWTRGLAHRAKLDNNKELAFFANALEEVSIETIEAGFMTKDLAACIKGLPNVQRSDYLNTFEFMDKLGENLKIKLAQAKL

SMILES strings stand for the structures.

For this assay, the target named is R132C IDH1 mutant HT-1080 cells (Homo sapiens, UniProt O75874, R132C). The assay is described as follows: Quantification of intracellular 2-HG in HT-1080 cells. It counts as cell-based. Conditions: read-out: IDH1 IC50 HT1080 cell 2-HG.

For the molecule `C[C@H](O)c1cccc(NC(=O)c2nn(Cc3ccc(F)cc3)c3c2CN(C(=O)c2ccc[nH]2)C[C@H]3C)c1` [GSK321, (7R)-1-[(4-fluorophenyl)methyl]-N-{3-[(1S)-1-hydroxyethyl]phenyl}-7-methyl-5-(1H-pyrrol-2-ylcarbonyl)-4,5,6,7-tetrahydro-1H-pyrazolo[4,3c]pyridine-3-carboxamide], the IC50 turned out to be 85 nM.

As usually defined, the IC50 is the midpoint of a concentration-inhibition curve.
